{"sequences": {"note": "Amino acid sequences for entries named in this document (tags omitted). Chains listed by the source or under a name are the forms on record and can include a tag or linker.", "UniProt Q14524, other isoform, or with tags, fused parts or gaps": "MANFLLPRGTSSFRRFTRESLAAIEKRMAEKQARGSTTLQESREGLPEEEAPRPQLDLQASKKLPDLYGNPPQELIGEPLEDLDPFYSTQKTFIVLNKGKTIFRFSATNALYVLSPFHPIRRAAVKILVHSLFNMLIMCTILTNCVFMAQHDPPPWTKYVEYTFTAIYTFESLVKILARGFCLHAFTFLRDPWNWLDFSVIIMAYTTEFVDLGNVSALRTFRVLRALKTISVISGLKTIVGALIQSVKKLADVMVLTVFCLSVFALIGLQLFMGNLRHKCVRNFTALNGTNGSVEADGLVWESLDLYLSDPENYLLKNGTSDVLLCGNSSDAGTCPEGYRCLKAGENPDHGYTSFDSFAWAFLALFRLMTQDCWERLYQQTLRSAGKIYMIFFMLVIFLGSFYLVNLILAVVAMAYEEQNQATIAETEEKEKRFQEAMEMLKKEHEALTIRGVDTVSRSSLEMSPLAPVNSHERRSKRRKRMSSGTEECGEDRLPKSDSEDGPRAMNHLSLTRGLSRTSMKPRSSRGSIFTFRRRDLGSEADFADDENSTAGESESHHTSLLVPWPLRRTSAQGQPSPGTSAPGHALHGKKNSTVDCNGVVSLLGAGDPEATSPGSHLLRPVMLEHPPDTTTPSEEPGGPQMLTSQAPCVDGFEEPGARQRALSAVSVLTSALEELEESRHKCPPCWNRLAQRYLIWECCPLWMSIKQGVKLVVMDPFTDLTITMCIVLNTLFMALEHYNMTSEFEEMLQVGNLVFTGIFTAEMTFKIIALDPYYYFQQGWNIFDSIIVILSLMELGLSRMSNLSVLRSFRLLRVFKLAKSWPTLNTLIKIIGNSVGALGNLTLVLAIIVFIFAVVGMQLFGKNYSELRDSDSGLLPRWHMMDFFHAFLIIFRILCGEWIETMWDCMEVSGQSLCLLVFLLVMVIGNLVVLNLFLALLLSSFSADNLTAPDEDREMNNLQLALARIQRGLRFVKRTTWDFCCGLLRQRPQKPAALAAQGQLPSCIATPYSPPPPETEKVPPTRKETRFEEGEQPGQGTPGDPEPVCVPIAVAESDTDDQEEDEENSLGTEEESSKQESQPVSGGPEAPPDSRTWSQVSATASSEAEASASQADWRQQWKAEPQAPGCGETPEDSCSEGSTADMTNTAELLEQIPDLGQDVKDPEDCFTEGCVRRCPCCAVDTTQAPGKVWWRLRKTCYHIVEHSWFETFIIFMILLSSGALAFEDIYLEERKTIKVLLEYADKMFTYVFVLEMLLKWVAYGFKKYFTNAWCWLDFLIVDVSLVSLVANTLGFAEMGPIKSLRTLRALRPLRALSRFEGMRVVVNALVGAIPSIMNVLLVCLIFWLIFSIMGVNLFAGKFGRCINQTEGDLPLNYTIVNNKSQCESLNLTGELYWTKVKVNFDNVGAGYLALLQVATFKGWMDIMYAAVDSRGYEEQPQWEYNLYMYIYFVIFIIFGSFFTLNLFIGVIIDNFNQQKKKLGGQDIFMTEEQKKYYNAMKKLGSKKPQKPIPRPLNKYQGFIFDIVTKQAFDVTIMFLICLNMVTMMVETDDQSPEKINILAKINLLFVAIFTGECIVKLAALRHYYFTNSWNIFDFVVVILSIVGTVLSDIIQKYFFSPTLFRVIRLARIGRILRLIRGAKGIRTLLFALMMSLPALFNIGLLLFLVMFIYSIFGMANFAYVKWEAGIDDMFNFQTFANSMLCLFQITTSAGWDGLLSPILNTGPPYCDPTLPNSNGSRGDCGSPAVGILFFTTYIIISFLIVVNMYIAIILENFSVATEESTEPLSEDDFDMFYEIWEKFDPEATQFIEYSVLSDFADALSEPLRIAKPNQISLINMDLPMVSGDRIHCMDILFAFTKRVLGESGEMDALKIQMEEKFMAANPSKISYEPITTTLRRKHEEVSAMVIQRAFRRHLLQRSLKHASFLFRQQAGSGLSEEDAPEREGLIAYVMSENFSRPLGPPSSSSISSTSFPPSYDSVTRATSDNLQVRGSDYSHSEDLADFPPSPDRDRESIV", "UniProt Q9UQD0, whole entry, looked up": "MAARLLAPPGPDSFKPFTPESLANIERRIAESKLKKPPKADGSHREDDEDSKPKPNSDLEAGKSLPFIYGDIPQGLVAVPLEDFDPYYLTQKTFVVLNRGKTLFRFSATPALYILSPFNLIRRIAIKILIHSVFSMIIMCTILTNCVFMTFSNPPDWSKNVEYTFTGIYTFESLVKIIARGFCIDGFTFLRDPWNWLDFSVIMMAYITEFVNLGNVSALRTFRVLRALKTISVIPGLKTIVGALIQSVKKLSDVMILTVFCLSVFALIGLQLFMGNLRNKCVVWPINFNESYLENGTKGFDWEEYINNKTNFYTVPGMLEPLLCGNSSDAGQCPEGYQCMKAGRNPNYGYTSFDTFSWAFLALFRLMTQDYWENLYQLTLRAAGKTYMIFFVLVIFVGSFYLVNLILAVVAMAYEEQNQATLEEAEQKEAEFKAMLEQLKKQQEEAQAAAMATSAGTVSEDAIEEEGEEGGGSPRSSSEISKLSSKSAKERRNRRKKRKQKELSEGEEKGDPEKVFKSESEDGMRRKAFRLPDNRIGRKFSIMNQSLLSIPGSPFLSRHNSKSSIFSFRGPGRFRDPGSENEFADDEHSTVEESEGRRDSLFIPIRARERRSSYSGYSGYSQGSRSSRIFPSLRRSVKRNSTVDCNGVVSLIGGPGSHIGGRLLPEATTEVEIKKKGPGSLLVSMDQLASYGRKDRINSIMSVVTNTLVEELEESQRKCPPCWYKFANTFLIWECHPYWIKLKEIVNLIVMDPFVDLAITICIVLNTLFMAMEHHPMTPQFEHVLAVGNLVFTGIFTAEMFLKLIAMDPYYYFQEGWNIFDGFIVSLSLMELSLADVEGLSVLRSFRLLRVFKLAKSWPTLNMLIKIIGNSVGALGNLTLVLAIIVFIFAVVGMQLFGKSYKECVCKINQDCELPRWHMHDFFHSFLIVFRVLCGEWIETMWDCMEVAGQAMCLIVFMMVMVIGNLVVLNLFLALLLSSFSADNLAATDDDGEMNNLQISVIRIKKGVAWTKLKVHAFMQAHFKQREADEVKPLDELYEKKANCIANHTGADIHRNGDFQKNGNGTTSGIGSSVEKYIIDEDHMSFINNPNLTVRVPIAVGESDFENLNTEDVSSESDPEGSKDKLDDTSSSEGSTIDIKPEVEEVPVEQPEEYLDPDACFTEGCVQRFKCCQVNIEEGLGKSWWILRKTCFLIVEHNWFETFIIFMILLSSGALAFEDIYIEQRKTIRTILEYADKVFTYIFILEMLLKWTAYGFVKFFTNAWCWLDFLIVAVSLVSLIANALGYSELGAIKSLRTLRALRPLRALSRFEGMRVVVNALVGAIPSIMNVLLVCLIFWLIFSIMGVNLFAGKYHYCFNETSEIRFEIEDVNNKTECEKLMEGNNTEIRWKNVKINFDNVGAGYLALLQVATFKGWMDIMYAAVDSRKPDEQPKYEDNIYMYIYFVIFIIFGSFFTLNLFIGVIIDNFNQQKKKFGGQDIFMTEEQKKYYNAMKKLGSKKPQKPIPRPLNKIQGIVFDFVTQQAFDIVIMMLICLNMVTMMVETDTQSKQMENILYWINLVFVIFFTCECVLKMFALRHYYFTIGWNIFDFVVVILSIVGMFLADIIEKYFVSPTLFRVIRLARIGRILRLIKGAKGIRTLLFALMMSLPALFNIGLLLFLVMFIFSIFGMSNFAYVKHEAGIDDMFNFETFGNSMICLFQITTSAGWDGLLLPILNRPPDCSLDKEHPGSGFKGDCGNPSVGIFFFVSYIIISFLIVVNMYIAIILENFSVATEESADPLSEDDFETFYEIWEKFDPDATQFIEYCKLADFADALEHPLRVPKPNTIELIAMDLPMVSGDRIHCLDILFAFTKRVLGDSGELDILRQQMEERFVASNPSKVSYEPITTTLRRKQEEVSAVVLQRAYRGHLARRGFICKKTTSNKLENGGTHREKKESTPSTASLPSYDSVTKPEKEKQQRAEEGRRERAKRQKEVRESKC"}, "source": "patent US10246453B2", "about": "“Benzenesulfonamide compounds and their use as therapeutic agents” (Xenon Pharmaceuticals Inc., priority 2016, dated 2019)", "key": {"NaV1.1 [1]": {"biological_target": "T1, NaV1.1 (Homo sapiens (Human), UniProt P35498)", "assay": "Sodium Influx Assay (Flux), NaV1.1", "format": "cell-based", "conditions": "Trex HEK293 cells, ANG2 dye; arithmetic mean"}, "NaV1.5 [2]": {"biological_target": "T2, NaV1.5 (Homo sapiens (Human), UniProt Q14524)", "assay": "Sodium Influx Assay (Flux), NaV1.5", "conditions": "read-out: Flux NaV1.5 IC50; Trex HEK293 cells, ANG2 dye; arithmetic mean"}, "NaV1.5 [3]": {"biological_target": "T2, NaV1.5", "assay": "cell-based"}, "NaV1.1 [4]": {"biological_target": "T1, NaV1.1", "assay": "Electrophysiological Assay (EP), patch voltage clamp, NaV1.1", "format": "cell-based", "conditions": "HEK-293 cells, whole-cell patch clamp, inactivated state; arithmetic mean"}, "NaV1.6": {"biological_target": "NaV1.6 (Homo sapiens (Human), UniProt Q9UQD0)", "assay": "Sodium Influx Assay (Flux), NaV1.6"}}, "note": "Structures can show the parent of a compound that is named as a salt.", "data": [{"compound": "C[C@@]1(Oc2cc(F)c(S(=O)(=O)Nc3cscn3)cc2Cl)CCN(Cc2ccccc2)C1", "note": "[Example 311B, (R)-4-((1-benzyl-3-methylpyrrolidin-3-yl)oxy)-5-chloro-2-fluoro-N-(thiazol-4-yl)benzenesulfonamide]", "values": [{"measurement": "IC50", "setting": "NaV1.1 [1]", "result": 18.1, "unit": "µM"}, {"measurement": "IC50", "setting": "NaV1.5 [2]", "result": 26.1, "unit": "µM"}]}, {"compound": "CC1(Oc2cc(F)c(S(=O)(=O)Nc3cscn3)cc2Cl)CCN(Cc2ccccc2)C1", "note": "(racemic) [Example 310, rac-4-((1-benzyl-3-methylpyrrolidin-3-yl)oxy)-5-chloro-2-fluoro-N-(thiazol-4-yl)benzenesulfonamide]", "values": [{"measurement": "IC50", "setting": "NaV1.5 [3]", "result": 18.2, "unit": "µM"}]}, {"compound": "Cc1cc(S(=O)(=O)Nc2cscn2)c(F)cc1N(C)[C@H]1CCN(Cc2ccccc2)C1", "note": "[Example 101, (S)-4-((1-benzylpyrrolidin-3-yl)(methyl)amino)-2-fluoro-5-methyl-N-(thiazol-4-yl)benzenesulfonamide formate]", "values": [{"measurement": "IC50", "setting": "NaV1.1 [4]", "result": 31.7, "unit": "µM"}]}, {"compound": "C[C@@H]1CN(Cc2ccccc2)CC[C@@H]1Oc1ccc(S(=O)(=O)Nc2nccs2)cc1Cl", "note": "(relative stereo) [Example 8A, 4-((cis-1-benzyl-3-methylpiperidin-4-yl)oxy)-3-chloro-N-(thiazol-2-yl)benzenesulfonamide]", "values": [{"measurement": "IC50", "setting": "NaV1.5 [3]", "result": 4.81, "unit": "µM"}]}, {"compound": "O=S(=O)(Nc1nccs1)c1ccc(OC2CCN(Cc3ccccc3)CC2)c(Cl)c1", "note": "[Example 95, 4-(1-benzylpiperidin-4-yloxy)-3-chloro-N-(thiazol-2-yl)benzenesulfonamide 2,2,2-trifluoroacetate]", "values": [{"measurement": "IC50", "setting": "NaV1.1 [1]", "result": 14.7, "unit": "µM"}]}, {"compound": "C[C@]1(Oc2cc(F)c(S(=O)(=O)Nc3cscn3)cc2Cl)CCN(Cc2ccccc2)C1", "note": "(single isomer, unassigned) [Example 311A]", "values": [{"measurement": "IC50", "setting": "NaV1.5 [3]", "result": 10.5, "unit": "µM"}, {"measurement": "IC50", "setting": "NaV1.6", "result": 18.3, "unit": "µM"}]}, {"compound": "C[C@@H]1CN(Cc2ccccc2F)CC[C@@H]1Oc1ccc(S(=O)(=O)Nc2nccs2)cc1Cl", "note": "(relative stereo) [Example 10A, 3-chloro-4-((cis-1-(2-fluorobenzyl)-3-methylpiperidin-4-yl)oxy)-N-(thiazol-2-yl)benzenesulfonamide]", "values": [{"measurement": "IC50", "setting": "NaV1.5 [3]", "result": 5.16, "unit": "µM"}]}]}
